The target in experiment [1] is T1, Lymnaea AChBP (Lymnaea stagnalis, UniProt P58154). Briefly: biochemical. It counts as binding.
Experiment [2] concerns the target T1, Lymnaea AChBP. The settings on record: read-out: Lymnaea Kd; cited from earlier work.

The chains behind the UniProt entries cited, without tags or fusion partners. Residues count along the entry.
UniProt P58154, 20-229 limits assumed: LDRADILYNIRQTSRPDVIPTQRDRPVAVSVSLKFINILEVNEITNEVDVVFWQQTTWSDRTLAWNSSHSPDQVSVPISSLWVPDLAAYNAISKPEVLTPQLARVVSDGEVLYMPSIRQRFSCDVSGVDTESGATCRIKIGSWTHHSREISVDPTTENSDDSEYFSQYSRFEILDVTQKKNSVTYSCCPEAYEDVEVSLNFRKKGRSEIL

Read-outs that look alike come from different tables or passages of the source.

Consider one molecule from patent publication US7947466B2 (priority 2003, dated 2011).

By Kd is commonly meant the constant that tells how readily two partners part at equilibrium. With `CN1CCCC1c1cccnc1` (single isomer, unassigned; (-)) [(−)-Nicotine], the results for the dissociation constant (Kd) in experiment [1] and in experiment [2] were 38 nM and 86 nM, respectively.
